Experimental data from patent US9233903B2, “Pharmaceutical substances on the basis of mitochondria-addressed antioxidants” (Mitotech SA, priority 2009, dated 2016).
Read-outs that look alike come from different tables or passages of the source.

Tests used:
[1] = Penetrating ability on artificial black (bilayer phospholipid) membranes, membrane potential; type: physicochemical; conditions: comparison between compounds
Excerpt: To test the penetrating ability of mitochondria-addressed compounds of structure (I), a method is used based on the ability of ions to penetrate through the phospholipid membrane bilayer moving along the concentration gradient. […] If a charged substance can penetrate through the bilayer membrane, its rapid diffusion out of the chamber having a high concentration of the substance, to the chamber having a low concentration of the substance, occurs, and thus a membrane potential difference is created. For ions which are carrying one charge and able to easily penetrate through the membrane, a 10-fold concentration gradient allows for creation of a potential of 60 mV (according to the Nernst equation). This method was used in various studies of the ability of ions to pass through the lipid bilayer of the membrane.

gramicidin channels [2] = assay: Protection of gramicidin channels in bilayer membrane, damage by photoactivated phthalocyanine; type: biochemical; conditions: photoactivation of phthalocyanine; FIG. 3A
Excerpt: A method was developed which allows the study of the antioxidant activity of compounds in a simple system consisting of a bilayer membrane, a conducting protein gramicidin and a photosensitizer (Mito Tracker Red, Invitrogen, Carlsbad, Calif.), thrice sulfonated aluminum phthalocyanine or zinc phthalocyanine). The method uses the ability of reactive oxygen species generated by photoactivation of the photosensitizer molecules to damage gramicidin channels, resulting in a sharp decrease in the conducting ability of the bilayer membrane.

gramicidin channels [3] = assay: Protection of gramicidin channels in bilayer membrane, damage by FeSO4, ascorbate and tert-butyl hydroperoxide; type: biochemical; conditions: FeSO4, ascorbate, tert-butyl hydroperoxide; FIG. 3B
Excerpt: A method was developed which allows the study of the antioxidant activity of compounds in a simple system consisting of a bilayer membrane, […]). […]

[4] = test system: HeLa and normal human diploid fibroblasts; assay: Protection of cells against H2O2-induced death (apoptosis), Hoechst/PI counting; type: cell-based
HeLa cells = assay: H2O2-induced oxidative stress in cells, DCF-DA cytofluorimetry; type: cell-based, human; conditions: incubation for 1 to 5 hours
Method: To measure the level of oxidative stress stimulated by H2O2, cells were stained with fluorescent dye DCF-DA (2′,7′-dichloro-dihydrofluorescein diacetate), and the level of fluorescence of the dye was measured with a cytofluorimeter.
Estimates were made on the basis of seven experiments. Data were estimated with respect to a group of the control cells lying on the diagram in the area of low DCF-DA fluorescence (50% of the population), this group of cells was taken as 100% and indicators for every action were estimated relative to this group.

[5] = 20 mM MOPS-KOH, pH=7.6; FIG. 1A
[6] = FIG. 1B
[7] = test system: mitochondrial respiratory chain

## CC1=C(C)C(=O)C(CCCCCCCCCC[P+](c2ccccc2)(c2ccccc2)c2ccccc2)=CC1=O [SkQ1, [10-(4,5-dimethyl-3,6-dioxo-cyclohexa-1,4-dien-1-yl)decyl]-triphenylphosphonium bromide]
[1]
  penetrating ability: less penetrating abilities compared to SkQ3 or SkQR1
Gramicidin channels [2]
  prevention of fall in membrane conductance (gramicidin channels): most efficient
Gramicidin channels [3]
  antioxidant efficiency, protection of gramicidin channels: most efficient
[4]; H2O2 300 μM, 7 days, FIG. 7
  protection of cells against death, comparison: much more effectively than MitoQ
[4]; H2O2 300 μM, incubation for 7 days, FIG. 7
  concentration at which protective effect against H2O2-induced cell death is exerted: 0.2 nM
[4]; incubation with the cells for 5 to 7 days
  resistance of cells to H2O2: increase resistance of cells to H2O2
HeLa cells
  effect on H2O2-induced oxidative stress in cells: did not prevent
[5]
  resistance of the reduced (quinol) form to oxidation by atmospheric oxygen: more resistant to oxidation by atmospheric oxygen than MitoQ
[6]
  oxidation by superoxide formed in the reaction of xanthine oxidase with xanthine: much more effective than that of MitoQ
[7]; complex I (glutamate and malate) and complex II (succinate), FIG. 5A
  ability to be reduced by the mitochondrial respiratory chain: can be reduced by the mitochondrial respiratory chain
[7]; malonate, rotenone, FIG. 5B
  oxidation with complex III: much slower than its reduction with complex I and complex II
Ceriodaphnia affinis; 0.55 nM
  Average life span M ± m: 33.55 ± 6.21
  Average life span, % of control: 166.09%
  LT25% fixed time of death: 22 days
  LT50% fixed time of death: 36 days
  LT75% fixed time of death: 45 days
  survival of the crustaceans versus control: higher than control
  time of death in 50% relative to control: 2 times
Ceriodaphnia affinis; 5.5 nM
  Average life span M ± m: 31.25 ± 8.11
  Average life span, % of control: 154.7%
  LT25% fixed time of death: 18 days
  LT50% fixed time of death: 26 days
  LT75% fixed time of death: 46 days
  survival of the crustaceans versus control: higher than control
  time of death in 50% relative to control: 1.4 times
Ceriodaphnia affinis; 55 nM
  Average life span M ± m: 12.85 ± 2.79
  Average life span, % of control: 63.61%
  LT25% fixed time of death: 9 days
  LT50% fixed time of death: 12 days
  LT75% fixed time of death: 17 days
  survival of the crustaceans versus control: lower than control
